According to patent US20130203718A1, “PROGESTERONE RECEPTOR ANTAGONISTS AND USES THEREOF” (priority 2010, published 2013):
“Also recorded” adds a separate entry of the source.

Legend:
Assay type in all cases: cell-based
hPRB and NCoR = target: T1, hPRB and NCoR (Homo sapiens, UniProt P06401); assay: Mammalian two hybrid assay, recruitment of co-repressor NCoR by hPRB; conditions: HEK293T, FIGS. 12 and 14
T1 construct: expressed in transfected cells; host or cells: HEK 293T
T1 sequence (P06401 1-933): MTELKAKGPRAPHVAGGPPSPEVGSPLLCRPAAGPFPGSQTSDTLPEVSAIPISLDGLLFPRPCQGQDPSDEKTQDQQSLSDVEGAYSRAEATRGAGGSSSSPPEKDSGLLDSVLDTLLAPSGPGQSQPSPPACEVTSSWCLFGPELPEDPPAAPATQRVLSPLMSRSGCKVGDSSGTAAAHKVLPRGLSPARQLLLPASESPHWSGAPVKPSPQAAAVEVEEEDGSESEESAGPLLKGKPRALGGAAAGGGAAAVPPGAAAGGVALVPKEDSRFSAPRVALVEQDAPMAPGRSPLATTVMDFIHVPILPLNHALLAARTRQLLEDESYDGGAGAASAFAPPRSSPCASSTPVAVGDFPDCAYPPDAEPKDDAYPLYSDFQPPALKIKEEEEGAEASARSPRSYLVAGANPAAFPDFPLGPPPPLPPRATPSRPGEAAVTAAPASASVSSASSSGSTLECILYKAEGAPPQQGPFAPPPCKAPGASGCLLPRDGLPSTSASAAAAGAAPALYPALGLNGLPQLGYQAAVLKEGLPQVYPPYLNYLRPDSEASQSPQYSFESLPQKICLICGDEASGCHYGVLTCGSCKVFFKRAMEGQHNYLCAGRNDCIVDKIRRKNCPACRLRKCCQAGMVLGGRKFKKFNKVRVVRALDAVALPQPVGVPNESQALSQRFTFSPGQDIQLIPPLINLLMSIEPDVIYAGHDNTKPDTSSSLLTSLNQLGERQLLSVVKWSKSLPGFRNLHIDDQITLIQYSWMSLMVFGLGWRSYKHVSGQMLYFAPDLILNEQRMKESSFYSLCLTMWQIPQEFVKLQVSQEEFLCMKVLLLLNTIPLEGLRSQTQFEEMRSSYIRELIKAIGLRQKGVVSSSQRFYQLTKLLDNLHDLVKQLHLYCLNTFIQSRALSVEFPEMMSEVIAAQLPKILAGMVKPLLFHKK
Protocol: (§1) Mammalian Two Hybrid Assays.
(§2) To investigate whether hPR was able to recruit transcriptional corepressors upon APRn binding, two hybrid assays have been performed in HEK 293T cells. Cell transfection were carried out according to the protocol used for the PR transactivation assays, with 1 μg of pGAL4-SMRT or pGAL4-NcoR, 2.5 μg of the PR expression vector pV16-PR and 5 μg of the reporter pG5-luc. The plasmid pGAL4-SMRT and pGAL4-NcoR, provided by P. Balaguer, encode the fusion protein between the GAL4 DNA-binding domain (GAL4DBD) and the receptor interacting domain (RID) of the corepressor […], respectively. The expression vector pV16PR encodes the VP16 activation domain of herpes simplex virus fused to the entire hPR and pG5-luc, provided by P. Fuller, encodes the luciferase gene driven by a GAL4-responsive promoter. […] Cells were lysed and the luciferase and activities were quantified by using a Mithras reader microplates (Berthold).
(§3) Both agonist- and antagonist-bound PR regulate gene transcription with the assistance of transcriptional co-repressors (NCoR, SMRT) or co-activators (namely, TIF-2). To characterize the mechanism by which APRn inactivate hPRB, the capacity of hPRB to recruit transcriptional co-regulators upon APRn binding has been evaluated. […]

hPRB and SMRT = target: T2, hPRB and SMRT (Homo sapiens, UniProt P06401); assay: Mammalian two hybrid assay, recruitment of co-repressor SMRT by hPRB; conditions: HEK293T, FIGS. 13 and 14
T2 construct: expressed in transfected cells; host or cells: HEK 293T
T2 sequence (P06401 1-933): T1 sequence (P06401 1-933)
Protocol: as §1, §2, §3

hPRB and TIF-2 = target: T3, hPRB and TIF-2 (Homo sapiens, UniProt P06401); assay: Mammalian two hybrid assay, recruitment of co-activator TIF-2 (TIF-2-Nter, TIF-2-NterRID) by hPRB; conditions: TIF-2-Nter and TIF-2-NterRID, HEK293T, FIGS. 15-17
T3 construct: expressed in transfected cells; host or cells: HEK 293T
T3 sequence (P06401 1-933): T1 sequence (P06401 1-933)
Protocol: as §1, §2, §3

| recruitment of co-repressor NCoR by hPRB upon ligand binding (hPRB and NCoR) | recruitment of co-repressor SMRT by hPRB upon ligand binding (hPRB and SMRT) | Structure (SMILES) | recruitment of co-activator TIF-2 sequences by hPRB upon ligand binding (hPRB and TIF-2) |
| --- | --- | --- | --- |
| promoted a dose-dependent binding | promoted a dose-dependent binding | CC#C[C@]1(O)CC[C@H]2[C@@H]3CCC4=CC(=O)CCC4=C3[C@@H](c3ccc(N(C)C)cc3)C[C@@]21C [RU486, mifepristone, reference compound] | promoted a dose-dependent binding of both TIF-2 sequences; also recorded: lower upon RU486 compared to progesterone |
| – | not SMRT | CC(=O)[C@H]1CC[C@H]2[C@@H]3CCC4=CC(=O)CC[C@]4(C)[C@H]3CC[C@]12C [progesterone] | promoted a dose-dependent binding of both TIF-2 sequences |
